Assays:
[1] = tested on: Mus musculus; test: Acute toxicity was measured in mice after peroral administration (425-553); settings: in vivo, po
[2] = tested on: Mus musculus; test: Acute toxicity was measured in mice after peroral administration; type: organism-based; settings: in vivo, po
Method in brief: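 Male DS mice, 20-26 g, given compound orally; mortality checked the day after treatment in groups of 10. LD50 by probit method, or by up-and-down method of Brownlee et al. (n = 5) where estimated.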

Compound	LD50 [1] [mg/kg]	LD50 [2] [mg/kg]
CN1CCC(N2C(=O)CN=C(c3ccccc3F)c3cc(Cl)ccc32)CC1	489	–
CN1CCC(N2C(=O)CN=C(c3ccccc3)c3ccccc32)CC1	–	425
CN1CCC(N2C(=O)CN=C(c3ccccc3F)c3cc(F)ccc32)CC1	–	267
CN1CCC(N2C(=O)CN=C(c3ccccc3)c3cc(Cl)ccc32)CC1	–	548

From ChEMBL document CHEMBL1123005, “1-Azacycloalkyl-1,4-benzodiazepin-2-ones with antianxiety-antidepressant actions” (J Med Chem, 1985)
